This is an account of results in BindingDB's records for doi:10.1007/bf02246453 (University of Turku, 1996).

By UniProt entry, the sequences of proteins in these tests, tags left out.
UniProt P14842, whole entry: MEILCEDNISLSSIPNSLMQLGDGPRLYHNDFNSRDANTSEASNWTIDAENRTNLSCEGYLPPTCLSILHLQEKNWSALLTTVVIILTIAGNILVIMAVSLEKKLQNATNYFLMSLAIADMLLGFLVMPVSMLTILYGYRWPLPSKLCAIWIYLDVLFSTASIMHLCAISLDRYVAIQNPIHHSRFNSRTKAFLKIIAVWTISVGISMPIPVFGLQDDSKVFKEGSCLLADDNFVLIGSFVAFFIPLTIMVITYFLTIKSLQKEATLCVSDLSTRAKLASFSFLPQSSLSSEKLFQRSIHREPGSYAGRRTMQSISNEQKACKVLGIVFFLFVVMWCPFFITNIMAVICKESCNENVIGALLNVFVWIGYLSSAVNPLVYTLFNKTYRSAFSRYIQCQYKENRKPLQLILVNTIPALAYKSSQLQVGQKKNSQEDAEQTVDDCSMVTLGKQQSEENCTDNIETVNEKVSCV
UniProt P31652, whole entry: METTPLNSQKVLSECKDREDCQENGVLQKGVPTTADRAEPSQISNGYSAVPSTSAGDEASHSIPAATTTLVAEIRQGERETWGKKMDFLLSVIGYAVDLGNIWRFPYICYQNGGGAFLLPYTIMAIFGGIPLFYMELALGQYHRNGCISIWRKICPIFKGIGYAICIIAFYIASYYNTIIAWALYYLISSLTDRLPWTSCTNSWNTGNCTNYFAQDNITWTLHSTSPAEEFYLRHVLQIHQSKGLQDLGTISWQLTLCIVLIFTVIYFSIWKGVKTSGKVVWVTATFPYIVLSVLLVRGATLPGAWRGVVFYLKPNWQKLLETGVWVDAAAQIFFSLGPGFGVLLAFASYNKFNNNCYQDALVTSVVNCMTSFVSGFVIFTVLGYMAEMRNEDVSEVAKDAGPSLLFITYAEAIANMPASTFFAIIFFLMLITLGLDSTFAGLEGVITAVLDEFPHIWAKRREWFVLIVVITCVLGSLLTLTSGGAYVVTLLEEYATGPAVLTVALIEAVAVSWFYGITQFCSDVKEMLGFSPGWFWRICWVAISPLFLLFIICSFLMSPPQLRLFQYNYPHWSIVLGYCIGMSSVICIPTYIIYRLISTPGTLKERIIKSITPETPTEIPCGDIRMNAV

Experiment [1] concerns the target 5-hydroxytryptamine receptor 2A (Rattus norvegicus, UniProt P14842).
Experiment [2] deals with Sodium-dependent serotonin transporter (Rattus norvegicus, UniProt P31652).
For experiment [3], the target named is T1, 5-hydroxytryptamine receptor 2C (Rattus norvegicus, UniProt P08909).
T1 sequence (P08909 whole entry): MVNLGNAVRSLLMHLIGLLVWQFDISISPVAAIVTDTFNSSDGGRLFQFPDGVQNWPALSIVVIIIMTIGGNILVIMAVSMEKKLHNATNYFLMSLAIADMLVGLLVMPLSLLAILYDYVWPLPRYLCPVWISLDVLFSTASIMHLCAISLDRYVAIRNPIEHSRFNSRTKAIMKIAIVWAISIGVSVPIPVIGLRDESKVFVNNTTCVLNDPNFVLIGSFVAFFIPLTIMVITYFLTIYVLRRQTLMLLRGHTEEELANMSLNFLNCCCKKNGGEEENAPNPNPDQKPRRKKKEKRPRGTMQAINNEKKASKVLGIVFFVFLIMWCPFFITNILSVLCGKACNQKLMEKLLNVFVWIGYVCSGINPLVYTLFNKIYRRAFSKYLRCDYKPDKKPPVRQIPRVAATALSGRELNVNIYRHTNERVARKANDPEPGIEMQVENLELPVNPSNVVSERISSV

pKi: −log10 of the molar value.

Regarding `Clc1ccc2c(c1)C(N1CCNCC1)=Nc1ccccc1O2`, the negative logarithm of the Ki (pKi) – broadly, the Ki on a negative log10 scale, so that one unit is a factor of ten – in experiment [1] was 9.00.

`CN(C)CCCN1c2ccccc2CCc2ccccc21` showed a pKi in experiment [1] of 6.80. On the same count and under the same terms, the result for `O=c1n(CCCN2CCN(c3cccc(Cl)c3)CC2)nc2ccccn12` [2-{3-[4-(3-chlorophenyl)piperazin-1-yl]propyl}[1,2,4]triazolo[4,3-a]pyridin-3(2H)-one] reads 8.22. `CN1Cc2c(N)cccc2[C@H](c2ccccc2)C1` [(+/-)-2-Methyl-4-phenyl-1,2,3,4-tetrahydro-isoquinolin-8-ylamine]: the pKi in experiment [2] and in experiment [3] was 6.00 in each case.
